# Yeast mating assay 1: variants of the scFv Ab-14

Data: MIT Lincoln Laboratory AlphaSeq set, Engelhart et al. 2022, doi:10.1038/s41597-022-01779-4, as distributed in FLAb.

Target peptide (SARS-CoV-2 spike, HR2 region): PDVDLGDISGINAS

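The parent was found by panning a naive human phage display library on the peptide. AAYL50 was designed without a model: most single CDR substitutions and a random sample of double and triple ones. The scFvs were displayed on barcoded MATa yeast, the peptide on MATalpha yeast. The frequency of each diploid, read from paired DNA barcodes, reflects how well the two displayed proteins bind. A regression on co-assayed BCL2-family reference pairs converts the normalised counts of each replicate to an apparent Kd. Each pool was mated in three replicate cultures.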

Parent: Ab-14, a human scFv built as VH, a 15-residue (Gly4Ser)3 linker, VL. Only the CDRs of the light chain vary.
VH: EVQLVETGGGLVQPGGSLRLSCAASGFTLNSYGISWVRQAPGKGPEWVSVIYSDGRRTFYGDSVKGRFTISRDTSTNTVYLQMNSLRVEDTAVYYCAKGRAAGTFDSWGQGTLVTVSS
VL: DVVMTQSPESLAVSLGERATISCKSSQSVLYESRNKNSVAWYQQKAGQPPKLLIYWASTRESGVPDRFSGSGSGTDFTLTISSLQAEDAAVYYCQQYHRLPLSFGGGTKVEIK

The parent's light chain CDRs are KSSQSVLYESRNKNSVA, WASTRES, QQYHRLPLS; each variant's own CDRs replace them letter for letter.
The read-out is the apparent dissociation constant on a log10 scale (nM): the lower, the stronger.
"ND" marks a missing value. The strain was present, yet no cells mated with the target were sequenced in that replicate, which points to weak or no binding.
Background: pairings of library AAYL50 with three empty control strains gave a value in 18% of cases (median 4.19, 5th percentile 2.99). Values in that range, when seen in few replicates, are hard to tell from nonspecific mating. For each scFv, signals with the empty controls are counted beside the result, with their mean in brackets.

| CDR-L1 | CDR-L2 | CDR-L3 | log10 Kd (nM) by replicate | control signals |
|---|---|---|---|---|
| KSSQSVLYKSRYKNSVA | WASTRES | QQYHRLPQS | ND ND ND | 2 of 9 (4.06) |
| KSSQSVLYEWRNKRSVA | WASTRES | QQYHRTPLS | 2.41 2.50 2.67 | 2 of 9 (3.86) |
| KSSQSVLYESRNKPSVA | WASMRES | QQKHRLPLS | 1.71 2.11 2.52 | 0 of 9 |
| KSSQSVLNESRNKNSVC | WASTRES | QQHHRLPLS | ND 3.65 ND | 2 of 9 (4.04) |
| KSSQSVFYESRNKNSVA | WASTRES | QQYHRLILM | 3.14 ND 2.58 | 1 of 9 (4.39) |
| KSSQFVLYESRNKNYVA | WASTRET | QQYHRLPLS | 2.24 ND 3.33 | 0 of 9 |
| KSSQSVLYESRNKPSVA | WRSTRES | QAYHRLPLS | 4.30 4.94 ND | 4 of 9 (4.02) |
| KSSQSVLYESRNKNSVP | WASTRES | QQRHRLPFS | ND ND ND | 0 of 9 |
| KSSQSWLYESRNKNSVA | WASTRYV | QQYHRLPLS | 0.42 0.66 0.55 | 3 of 9 (4.65) |
| KSSQSWLYESRNKNSVA | WASTRIS | QQYHRLPLS | ND ND ND | 0 of 9 |
| KSSQSVLYESRNKNSVA | EASTEES | QQYHRHPLS | ND 4.33 4.19 | 1 of 9 (4.10) |
| PSSQSVLYESRNKNSNA | WASTRES | QQYHRLPLS | 3.76 ND ND | 1 of 9 (4.63) |
| KSSQSVLYESRNKNSTA | WASTVES | QQYHRLPLG | 1.97 1.84 1.97 | 1 of 9 (5.10) |
| KSSQSVLYESRNKNSVD | WASTREG | QQYWRLPLS | ND ND ND | 1 of 9 (3.94) |
| KVSQSVLYESRNKGSVA | WASTREG | QQYHRLPLS | 0.34 0.53 0.44 | 1 of 9 (3.93) |
| KSSQWVLYEPRNKNSVA | WASTREG | QQYHRLPLS | 1.94 1.93 2.13 | 5 of 9 (4.56) |
| KSSQSVLYEARNKNSVA | WASYRES | GQYHRLPLS | 3.44 2.90 4.44 | 1 of 9 (3.21) |
| HSSQSVLYESRNKNSVA | WLSTRES | QFYHRLPLS | 4.28 ND ND | 6 of 9 (4.21) |
| KSSQSVLYNSRNKNSVA | WASTRET | QQLHRLPLS | ND ND ND | 0 of 9 |
| KNSQSVPYESRNKNSVA | WAGTRES | QQYHRLPLS | 2.42 ND 4.67 | 1 of 9 (4.10) |
| KSSQSVLYESRNKNSVA | WASLRES | QVYHRLQLS | 0.83 0.76 1.16 | 1 of 9 (3.84) |
| KSSQSVLYESRNKNSVA | WASTRES | QQYHRLPLL | 0.61 0.76 0.66 | 1 of 9 (5.02) |
| KSMQSVQYESRNKNSVA | WASTRES | QQFHRLPLS | 3.45 2.52 2.63 | 3 of 9 (3.81) |
| KTSQEVLYESRNKNSRA | WASTRES | QQYHRLPLS | ND ND ND | 0 of 9 |
| KSSQSVLYESRLKNSVA | WASTASS | QQYHRLPLS | 4.75 ND 5.39 | 4 of 9 (4.43) |
| KASQSVLYWSRNKNSVA | WASTMES | QQYHRLPLS | 2.59 4.33 3.59 | 2 of 9 (5.50) |
| WSSQSVLYESRQKNSVA | WASTKES | QQYHRLPLS | 3.72 2.91 3.33 | 4 of 9 (4.16) |
| KSSWSVLYESRNKNSVA | WASTRES | QQYHRLILS | 5.16 ND 3.83 | 5 of 9 (3.98) |
| KSSQSVFYESRNKNSVA | WAFTRES | QQYHRLELS | ND ND ND | 0 of 9 |
| KSMQSVKYESRNKNSVA | VASTRES | QQYHRLPLS | ND ND 4.59 | 0 of 9 |
| KSSQSVLYESRDKNMVA | WASTRES | QQDHRLPLS | ND ND 5.19 | 1 of 9 (2.58) |
| KSSLSVLYEHRHKNSVA | WASTRES | QQYHRLPLS | 1.83 1.85 2.34 | 5 of 9 (4.41) |
| KSSQSVLYESRNKNSVA | WASDRET | QQYHRLPAS | 2.05 1.98 1.73 | 1 of 9 (3.40) |
| KSSMSVLYESRNKNSVA | WASTRHI | QQYHRLPLS | 1.26 1.18 1.42 | 0 of 9 |
| ESSQEVLSESRNKNSVA | WASTRES | QQYHRLPLS | 1.21 0.62 0.87 | 0 of 9 |
| KSSQSVKYESCNKNSVA | WASTRES | QQYHRLPLS | ND 3.66 ND | 0 of 9 |
| SSSQSVLYESRNKNSVA | WASTQES | HQYHRLPLS | 3.77 4.08 ND | 4 of 9 (3.93) |
| KSSQSTLYESRNKNSVA | WAQTRRS | QQYHRLPLS | 3.48 5.09 4.26 | 1 of 9 (4.31) |
| KSSQSVLYESRNKNSVA | WASKRES | QQYHRLPLS | ND ND ND | 2 of 9 (2.35) |
| KSDQSVLYESRNKNSVA | WAWTRES | QQYHRLPLS | 3.14 3.21 3.39 | 2 of 9 (4.28) |
| KSSQSVVYESRNKNSVA | WCSTRES | FQYHRLPLS | 6.31 ND 5.56 | 3 of 9 (4.97) |
| KSSQSVLYESTNKNSVA | WASTYEC | QQYHRLPLS | 5.86 ND ND | 1 of 9 (3.47) |
| KSSQSVLAESRNKNSVA | WASTRES | QQPHKLPLS | 0.74 0.88 0.44 | 3 of 9 (4.79) |
| KSSQSVLYESRNKNSVA | WASMRES | YQYHRLRLS | ND 2.99 ND | 0 of 9 |
| KSSQSVLYESHNKNSVA | WFSTRES | QQYNRLPLS | ND 2.98 ND | 1 of 9 (3.79) |
| KRSQSELYESRNYNSVA | WASTRES | QQYHRLPLS | 0.78 1.16 1.29 | 2 of 9 (4.59) |
| KSSQSVLYESRNKNSVA | WARTRVS | HQYHRLPLS | 1.96 1.97 2.64 | 1 of 9 (2.99) |
| KSSTSVLYESRSKNSNA | WASTRES | QQYHRLPLS | ND ND ND | 1 of 9 (3.01) |

The 6 strongest on average among those seen in every replicate, once more:

| CDR-L1 | CDR-L2 | CDR-L3 | log10 Kd (nM) by replicate | control signals |
|---|---|---|---|---|
| KVSQSVLYESRNKGSVA | WASTREG | QQYHRLPLS | 0.34 0.53 0.44 | 1 of 9 (3.93) |
| KSSQSWLYESRNKNSVA | WASTRYV | QQYHRLPLS | 0.42 0.66 0.55 | 3 of 9 (4.65) |
| KSSQSVLYESRNKNSVA | WASTRES | QQYHRLPLL | 0.61 0.76 0.66 | 1 of 9 (5.02) |
| KSSQSVLAESRNKNSVA | WASTRES | QQPHKLPLS | 0.74 0.88 0.44 | 3 of 9 (4.79) |
| ESSQEVLSESRNKNSVA | WASTRES | QQYHRLPLS | 1.21 0.62 0.87 | 0 of 9 |
| KSSQSVLYESRNKNSVA | WASLRES | QVYHRLQLS | 0.83 0.76 1.16 | 1 of 9 (3.84) |

In this assay the parent's reference entry averaged 0.65; its copy inside this library read 1.68.